We go through 1 compound from BindingDB's records for 10.1016/S0960-894X(00)80510-7.

The chains behind the UniProt entries cited, without tags or fusion partners. Where a name states a change or a piece, a line headed by the entry shows the natural chain unless it says otherwise.
UniProt P07639: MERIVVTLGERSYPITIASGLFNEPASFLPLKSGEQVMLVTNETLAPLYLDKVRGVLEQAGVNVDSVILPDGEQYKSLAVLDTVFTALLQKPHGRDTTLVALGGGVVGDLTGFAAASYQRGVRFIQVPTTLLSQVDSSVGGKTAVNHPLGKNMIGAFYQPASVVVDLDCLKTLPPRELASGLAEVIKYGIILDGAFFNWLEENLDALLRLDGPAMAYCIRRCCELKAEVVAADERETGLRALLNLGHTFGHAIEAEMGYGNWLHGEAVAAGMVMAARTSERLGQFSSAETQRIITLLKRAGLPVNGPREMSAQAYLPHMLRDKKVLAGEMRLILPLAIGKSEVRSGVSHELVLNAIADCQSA

For test [1], the target named is T1, 3-dehydroquinate synthase (Escherichia coli (strain K12), UniProt P07639). The experiment in a line: Rate constant against 3-dehydroquinate synthase.
In test [2] the target is T1, 3-dehydroquinate synthase. The experiment in a line: Association rate constant against 3-dehydroquinate synthase.

SMILES strings stand for the structures.

`O=C(O)[C@@]1(O)CC[C@H](O)[C@@H](CP(=O)(O)O)C1` gave a kon (M-1-s-1) in test [1] of 1500 M⁻¹ s⁻¹. In test [2], the koff (as a rule, the rate constant with which the complex falls apart) came to 0.00032 s⁻¹.
